Values of other authors in patent US20090181086A1 (priority 2008, published 2009).
Like-named read-outs stand apart in the source and are kept apart here.

C#CCN[C@@H]1CCc2ccccc21.CS(=O)(=O)O [Rasagiline mesylate, 1H-Inden-1-amine, 2,3-dihydro-N-2-propynyl-, (1R)-, methanesulfonate]
solubility, in words (ethanol): freely soluble
solubility, in words (isopropanol): sparingly soluble
solubility, in words (water): freely soluble
